Here are results for 1 molecule from paper PMC5419078 (mAbs, 2017).

Experiment [1] addresses T1, recombinant human soluble TNF (silkworm baculovirus expression system) (human, UniProt P01375 77-233).
T1 construct: tumor necrosis factor (TNF), human, recombinant soluble form; also called tumor necrosis factor; baculovirus-expressed TNF; source: silkworm baculovirus expression system (ProCube, Sysmex), purified
Description: AUC; FDS-SV, 25 nM Alexa Fluor 488-labeled antagonist with 0–25 nM TNF in human serum, incubated at 20°C for 2 hours, 42,000 rpm; HSA-bilirubin signal subtracted. As to conditions: both partners purified.

For experiment [2], the target named is T1, recombinant human soluble TNF (silkworm …). Description: AUC; FDS-SV, 25 nM Alexa Fluor 488-labeled antagonist with 0–25 nM TNF in PBS with 0.1 mg/mL lysozyme, incubated at 20°C for 2 hours, 42,000 rpm. To be noted: both partners purified.

The term stoichiometry N denotes the number of molecules, sites or subunits per partner or assembly.

B1: Alexa Fluor 488-labeled etanercept (Fc fusion, human, UniProt P20333 23-257, looked up)
chain: LPAQVAFTPYAPEPGSTCRLREYYDQTAQMCCSKCSPGQHAKVFCTKTSDTVCDSCEDSTYTQLWNWVPECLSCGSRCSSDQVETQACTREQNRICTCRPGWYCALSKQEGCRLCAPLRKCRPGFGVARPGTETSDVVCKPCAPGTFSNTTSSTDICRPHQICNVVAIPGNASMDAVCTSTSPTRSMAPGAVHLPQPVSTRSQHTQPTPEPSTAPSTSFLLPMGPSPPAEGSTGD
modifications: Alexa Fluor 488 fluorescent dye (site not stated)
notes: Same chain as m4 with the fluorescent label; source: bought: Takeda Pharmaceutical Company Limited (Enbrel); labeled with Alexa Fluor 488, purified by SEC
As to B1, the “fraction of etanercept uncomplexed at an equimolar ratio” value in experiment [1] was approximately 0.2 fraction. For the same molecule, in experiment [2], the “stoichiometry N” value amounted to 1 etanercept per TNF trimer.
